Sequences of proteins named here, by UniProt entry; tags and fusion partners are left off. Residues count along the entry.
UniProt P06867, 97-579 limits assumed: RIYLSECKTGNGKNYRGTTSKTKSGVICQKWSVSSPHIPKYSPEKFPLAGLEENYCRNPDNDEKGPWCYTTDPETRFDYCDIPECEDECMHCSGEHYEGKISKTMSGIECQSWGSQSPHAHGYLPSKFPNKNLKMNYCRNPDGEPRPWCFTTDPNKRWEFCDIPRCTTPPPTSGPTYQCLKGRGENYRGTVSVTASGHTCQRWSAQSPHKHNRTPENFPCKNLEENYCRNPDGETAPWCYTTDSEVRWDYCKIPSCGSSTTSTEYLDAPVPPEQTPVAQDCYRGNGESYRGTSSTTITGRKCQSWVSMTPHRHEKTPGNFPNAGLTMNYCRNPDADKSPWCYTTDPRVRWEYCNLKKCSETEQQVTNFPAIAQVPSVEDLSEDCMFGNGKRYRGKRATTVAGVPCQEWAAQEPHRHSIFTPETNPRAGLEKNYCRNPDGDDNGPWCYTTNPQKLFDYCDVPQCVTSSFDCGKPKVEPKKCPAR
UniProt P06867, 580-809 limits assumed: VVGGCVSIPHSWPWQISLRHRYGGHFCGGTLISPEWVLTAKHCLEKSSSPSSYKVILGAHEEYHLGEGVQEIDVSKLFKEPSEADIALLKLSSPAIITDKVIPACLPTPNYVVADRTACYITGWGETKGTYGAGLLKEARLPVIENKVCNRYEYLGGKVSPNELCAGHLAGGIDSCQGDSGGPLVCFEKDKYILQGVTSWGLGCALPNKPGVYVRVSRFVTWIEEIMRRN
UniProt P06868, 584-812 limits assumed: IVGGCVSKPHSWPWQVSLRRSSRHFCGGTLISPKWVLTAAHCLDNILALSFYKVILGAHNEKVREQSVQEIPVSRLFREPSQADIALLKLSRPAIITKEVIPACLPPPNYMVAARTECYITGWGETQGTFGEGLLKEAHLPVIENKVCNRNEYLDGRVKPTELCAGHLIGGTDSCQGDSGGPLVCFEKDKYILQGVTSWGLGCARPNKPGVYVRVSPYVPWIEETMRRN
UniProt P06868, 104-583 limits assumed: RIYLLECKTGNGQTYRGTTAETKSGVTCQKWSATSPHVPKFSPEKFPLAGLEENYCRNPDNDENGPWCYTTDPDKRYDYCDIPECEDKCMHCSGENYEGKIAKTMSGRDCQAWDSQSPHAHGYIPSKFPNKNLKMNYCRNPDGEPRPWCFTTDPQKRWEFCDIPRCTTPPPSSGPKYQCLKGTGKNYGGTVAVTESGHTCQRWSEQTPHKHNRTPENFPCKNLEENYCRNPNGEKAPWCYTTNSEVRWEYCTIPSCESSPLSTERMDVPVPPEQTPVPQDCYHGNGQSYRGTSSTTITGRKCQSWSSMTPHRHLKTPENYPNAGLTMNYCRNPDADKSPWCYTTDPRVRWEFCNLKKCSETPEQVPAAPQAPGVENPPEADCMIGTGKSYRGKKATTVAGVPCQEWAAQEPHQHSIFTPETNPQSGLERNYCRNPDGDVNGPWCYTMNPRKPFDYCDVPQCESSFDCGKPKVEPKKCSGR
UniProt P00747, 97-580: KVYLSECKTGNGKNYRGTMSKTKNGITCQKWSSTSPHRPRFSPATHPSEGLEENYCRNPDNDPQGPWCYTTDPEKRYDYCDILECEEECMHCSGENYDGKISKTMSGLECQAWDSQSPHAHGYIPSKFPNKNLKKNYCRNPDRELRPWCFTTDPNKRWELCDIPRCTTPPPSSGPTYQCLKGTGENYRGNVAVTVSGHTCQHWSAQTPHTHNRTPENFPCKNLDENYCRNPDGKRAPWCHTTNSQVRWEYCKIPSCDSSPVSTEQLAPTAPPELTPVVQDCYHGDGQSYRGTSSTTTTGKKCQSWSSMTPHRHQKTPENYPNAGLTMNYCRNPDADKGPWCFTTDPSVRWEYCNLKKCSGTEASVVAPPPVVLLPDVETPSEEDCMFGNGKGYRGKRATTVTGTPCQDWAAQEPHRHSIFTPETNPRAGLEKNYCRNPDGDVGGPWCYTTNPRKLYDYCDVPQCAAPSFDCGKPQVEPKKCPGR
UniProt P00747, 581-810: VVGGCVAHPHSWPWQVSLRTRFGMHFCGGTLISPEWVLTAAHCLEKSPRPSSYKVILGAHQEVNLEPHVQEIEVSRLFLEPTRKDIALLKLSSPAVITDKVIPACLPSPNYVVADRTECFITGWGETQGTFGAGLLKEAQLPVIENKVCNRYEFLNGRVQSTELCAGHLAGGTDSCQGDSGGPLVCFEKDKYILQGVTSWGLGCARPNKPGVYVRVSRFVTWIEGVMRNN

According to patent publication US3950513A, “Process of stabilizing therapeutically useful plasmin solutions” (Novo Terapeutisk Laboratorium A/S, priority 1969, dated 1976):

Key:
[1] = biological target: T1, plasmin originating from swine blood (Sus scrofa, UniProt P06867); test: Stabilizing effect of amino acids on plasmin solution, residual plasmin activity (casein) on storage; format: biochemical; conditions: about 0.4 plasmin unit per ml, phosphate buffer pH 7.5, 0.25 millimole amino acid per plasmin unit (or saturated), % of initial activity; for % activity after 120 minutes at 35.5°C: without amino acid 43; for % activity after 60 minutes at 35.5°C: without amino acid 55
T1 construct: from tissue; host or cells: swine blood

[2] = biological target: T2, plasmin originating from ox blood (Bos taurus, UniProt P06868); test: Stabilizing effect of amino acids on plasmin solution from ox blood; format: biochemical; conditions: 0.25 millimole amino acid per plasmin unit; for % activity after 60 min. at 35.5°C: without amino acid 60
T2 construct: from tissue; host or cells: ox blood

[3] = biological target: T3, plasmin originating from human blood (Homo sapiens, UniProt P00747); test: Stabilizing effect of amino acids on plasmin solution from human blood; format: biochemical; conditions: 0.25 millimole amino acid per plasmin unit; for % activity after 60 min. at 35.5°C: without amino acid 55
T3 construct: from tissue; host or cells: human blood

[4] = biological target: plasmin (Sus scrofa, UniProt P06867); test: Activity of plasmin solution with varying amounts of L-lysine stored at 35.5°C and 25°C; format: biochemical, swine
[5] = 0.031 millimole L-lysine per plasmin unit, 0.4 plasmin units per ml

% activity after 120 minutes at 35.5°C [1] | % activity after 60 minutes at 35.5°C [1] | SMILES | further results
57% | 77% | CC[C@H](C)[C@H](N)C(=O)O (racemic) [DL-isoleucine] | 
53% | 72% | CC(C)CC(N)C(=O)O (racemic) [DL-leucine] | 
59% | 72% | CCCCC(N)C(=O)O (racemic) [DL-norleucine] | 
55% | 73% | NC(Cc1ccccc1)C(=O)O (racemic) [DL-phenyl analine] | 
48% | 60% | NC(Cc1c[nH]c2ccccc12)C(=O)O (racemic) [DL-thrypthophane] | 
49% | 60% | CC(C)C(N)C(=O)O (racemic) [DL-valine] | 
60% | 81% | CN(CC(=O)O)C(=N)N [Creatine] | 
77% | 88% | NCC(=O)NCC(=O)O [Glycyl glycine] (H-Gly-Gly-OH) | 
68% | 80% | N=C(N)NCC(=O)O [Guanidino acetic acid] | 
51% | 60% | N[C@@H](CC(=O)O)C(=O)O [L(+)-aspartic acid] | 
54% | 64% | NC(=O)NCCC[C@H](N)C(=O)O [L(+)-citrulline] | 
61% | 64% | N[C@@H](Cc1c[nH]cn1)C(=O)O [L-histidine] | 
 |  | NCCCC[C@H](N)C(=O)O [L-lysine] | % activity after 60 min. at 35.5°C [2]: 85%; % activity after 60 min. at 35.5°C [3]: 87%; % activity after 60 min. at 35.5°C [4, 5]: 74%; % activity after 120 min. at 35.5°C [4, 5]: 52%; % activity after 120 min. at 35.5°C ([4]; 0.062 millimole L-lysine per plasmin unit, 0.4 plasmin units per ml): 73%; % activity after 60 min. at 35.5°C ([4]; 0.25 millimole L-lysine per plasmin unit, 0.4 plasmin units per ml (Table VI)): 100%
52% | 73% | Nc1cccc(C(=O)O)c1 [m-amino benzoic acid] | 
63% | 77% | Nc1ccc(C(=O)O)cc1 [p-amino benzoic acid] | 
87% | 92% | CC(=O)N[C@@H](CCCNC(=N)N)C(=O)O [α-N-acetyl-L-arginine] | 
 | 97% | NCCCC(=O)O [γ-amino butyric acid] | 

SMILES | % activity after 120 minutes at 35.5°C [1] | % activity after 60 minutes at 35.5°C [1] | further results
O=C(O)[C@@H]1C[C@@H](O)CN1 [L(-)-hydroxyproline] | 66% | 69% | 
N=C(N)NCCC[C@H](N)C(=O)O [L-arginine] |  | 78% | % activity after 60 min. at 35.5°C [2]: 86%
Nc1ccccc1C(=O)O [o-amino benzoic acid] | 68% | 79% | 
NCCCCCC(=O)O [ε-amino caproic acid] | 80% | 85% | % activity after 120 min. at 35.5°C ([2]; without amino acid 45): 99%; % activity after 60 min. at 35.5°C [2]: 100%; % activity after 120 min. at 35.5°C ([3]; without amino acid 32): 96%; % activity after 60 min. at 35.5°C [3]: 94%

Where a SMILES comes first, the peptide text is derived from it.
